Results: patent US20230250096A1, “SUBSTITUTED PHENYL-1H-PYRROLO[2,3-c] PYRIDINE DERIVATIVES” (Janssen Pharmaceutica NV, priority 2021, published 2023)

Protein sequences, listed by entry. Tags and fused reporters are not part of them. Chains listed by the source or under a name are the forms on record and can include a tag or linker. Residues count along the entry.
UniProt O00255, 1-610 with tags or gaps T541A: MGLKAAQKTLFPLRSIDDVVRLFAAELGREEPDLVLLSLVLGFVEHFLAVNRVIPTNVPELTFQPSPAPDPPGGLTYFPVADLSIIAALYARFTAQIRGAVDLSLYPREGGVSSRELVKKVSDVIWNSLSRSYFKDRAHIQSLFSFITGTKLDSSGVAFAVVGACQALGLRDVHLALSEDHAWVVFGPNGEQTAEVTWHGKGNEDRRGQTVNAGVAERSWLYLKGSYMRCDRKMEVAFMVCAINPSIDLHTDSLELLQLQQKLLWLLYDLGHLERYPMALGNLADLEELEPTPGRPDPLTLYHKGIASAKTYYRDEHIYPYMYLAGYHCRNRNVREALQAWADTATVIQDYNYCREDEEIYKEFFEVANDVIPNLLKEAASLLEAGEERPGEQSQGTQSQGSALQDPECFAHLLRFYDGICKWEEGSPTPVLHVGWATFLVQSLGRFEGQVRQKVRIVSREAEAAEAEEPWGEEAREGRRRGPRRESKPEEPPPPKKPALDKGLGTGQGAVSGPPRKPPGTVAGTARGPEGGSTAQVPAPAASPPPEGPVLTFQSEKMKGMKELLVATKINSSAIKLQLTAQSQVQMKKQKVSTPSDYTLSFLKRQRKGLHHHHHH

Legend:
MEIS1 mRNA expression = MEIS1 mRNA expression assay (Quantigene Singleplex) in MOLM14 cells; details: read-out: MEIS1 IC50, 48 hours incubation
Method: 2b) MEIS1 mRNA Expression Assay
MEIS1 mRNA expression upon treatment of compound was examined by Quantigene Singleplex assay (Thermo Fisher Scientific). This technology allows for direct quantification of mRNA targets using probes hybridizing to defined target sequences of interest and the signal is detected using a Multimode plate reader Envision (PerkinElmer). The MOLM14 cell line was used for this experiment. Cells were plated in 96-well plates at 3,750 cells/well in the presence of increasing concentrations of compounds. After incubation of 48 hours with compounds, cells were lysed in lysis buffer and incubated for 45 minutes at 55° C. Cell lysates were mixed with human MEIS specific capture probe or human RPL28 (Ribosomal Protein L28) specific probe as a normalization control, as well as blocking probes. Cell lysates were then transferred to the custom assay hybridization plate (Thermo Fisher Scientific) and incubated for 18 to 22 hours at 55° C. Subsequently, plates were washed to remove unbound materials followed by sequential addition of preamplifiers, amplifiers, and label probe. Signals (═gene counts) were measured with a Multimode plate reader Envision. IC50S were calculated by dose-response modelling using appropriate software. For all non-housekeeper genes response equal counts corrected for background and relative expression. For each sample, each test gene signal (background subtracted) was divided by the normalization gene signal (RPL28: background subtracted). Fold changes were calculated by dividing the normalized values for the treated samples by the normalized values for the DMSO treated sample. Fold changes of each target gene were used for the calculation of IC50S.

[1] = biological target: menin/MLL (terbium chelate-labeled menin, FITC-MBM1 peptide) (Homo sapiens, UniProt O00255, T541A); test: Menin/MLL homogenous time-resolved fluorescence (HTRF) assay; details: read-out: HTRF-30 min incubation IC50
Method: 1) Menin/MLL Homogenous Time-Resolved Fluorescence (HTRF) Assay
To an untreated, white 384-well microtiter plate was added 40 nL 200× test compound in DMSO and 4 μL 2× terbium chelate-labeled menin (vide infra for preparation) in assay buffer (40 mM Tris HCl, pH 7.5, 50 mM NaCl. 1 mM DTT (dithiothreitol) and 0.05% Pluronic F-127). After incubation of test compound and terbium chelate-labeled menin for 30 min at ambient temperature, 4 μL 2×FITC-MBM1 peptide (FITC-β-alanine-SARWRFPARPGT-NH2) (“FITC” means fluorescein isothiocyanate) in assay buffer was added, the microtiter plate centrifuged at 1000 rpm for 1 min and the assay mixtures incubated for 15 min at ambient temperature. The relative amount of menin FITC-MBM1 complex present in an assay mixture is determined by measuring the homogenous time-resolved fluorescence (HTRF) of the terbium/FITC donor/acceptor fluorphore pair using an EnVision microplate reader (ex. 337 nm/terbium em. 490 nm/FITC em. 520 nm) at ambient temperature. The degree of fluorescence resonance energy transfer (the HTRF value) is expressed as the ratio of the fluorescence emission intensities of the FITC and terbium fluorophores (F^em520 nm/F^em490 nm). The final concentrations of reagents in the binding assay are […] terbium chelate-labeled menin, 75 nM FITC-MBM1 peptide and 0.5% DMSO in assay buffer. Dose-response titrations of test compounds are conducted using an 11 point, four-fold serial dilution scheme, starting typically at 10 μM.
Compound potencies were determined by first calculating % inhibition at each compound concentration according to equation 1:
% inhibition=((HC−LC)−(HTRF^compound−LC))/(HC−LC))*100 (Eqn 1)
Where LC and HC are the HTRF values of the assay in the presence or absence of a saturating concentration of a compound that competes with FITC-MBM1 for binding to menin, and HTRF^compound is the measured HTRF value in the presence of the test compound. HC and LC HTRF values represent an average of at least 10 replicates per plate.
% inhibition=Bottom+(Top−Bottom)/(1+10^((log/C50−log[cmpd])*h)) (Eqn 2)
Where Bottom and Top are the lower and upper asymptotes of the dose-response curve, respectively, IC50 is the concentration of compound that yields 50% inhibition of signal and h is the Hill coefficient.
Preparation of Terbium cryptate labeling of Menin: Menin (a.a 1-610-6xhis tag, 2.3 mg/mL in 20 mM Hepes (2-[4-(2-Hydroxyethyl)-1-piperazinyl]ethane sulfonic acid), 80 mM NaCl, 5 mM DTT (Dithiothreitol), pH 7.5) was labeled with terbium cryptate as follows. 200 μg of Menin was buffer exchanged into 1×Hepes buffer. 6.67 μM Menin was incubated with 8-fold molar excess NHS (N-hydroxysuccinimide)-terbium cryptate for 40 minutes at room temperature. Half of the labeled protein was purified away from free label by running the reaction over a NAP5 column with elution buffer (0.1M Hepes, pH 7+0.1% BSA (bovine serum albumin)). The other half was eluted with 0.1 M phosphate buffered saline (PBS), pH7. 400 μl of eluent was collected for each, aliquoted and frozen at −80° C. The final concentration of terbium-labeled Menin protein was 115 μg/mL in Hepes buffer and 85 μg/mL in PBS buffer, respectively.

OCI-AML3 cells = test: Proliferation assay (spheroid confluence, 8 days), OCI-AML3; details: read-out: spheroid assay_OCI-AML3 IC50
Method: (§1) The anti-proliferative effect of menin/MLL protein/protein interaction inhibitor test compounds was assessed in human leukemia cell lines. The cell line MOLM14 harbors a MLL translocation and expresses the MLL fusion protein MLL-AF9, respectively, as well as the wildtype protein from the second allele. OCI-AML3 cells that carry the NPM1c gene mutation were also tested. […] KO-52 was used as a control cell line containing two MLL (KMT2A) wildtype alleles in order to exclude compounds that display general cytotoxic effects.
MOLM14 cells were cultured in RPMI-1640 (Sigma Aldrich) supplemented with 10% heat-inactivated fetal bovine serum (HyClone), 2 mM L-glutamine (Sigma Aldrich) and 50 μg/ml gentamycin (Gibco). […]
In order to assess the anti-proliferative effects, 200 MOLM14 cells, 200 OCI-AML3 cells or 300 KO-52 cells were seeded in 200 μl media per well in 96-well round bottom, ultra-low attachment plates (Costar, catalogue number 7007). […] Spheroid like growth was measured in real-time by live-cell imaging (IncuCyteZOOM, Essenbio, 4×objective) acquiring images at day 8. Confluence (%) as a measure of spheroid size was determined using an integrated analysis tool.
In order to determine the effect of the test compounds over time, the confluence in each well as a measure of spheroid size, was calculated. […]
Absolute IC50 values were calculated as percent change in confluence as follows: […]

MOLM14 cells = test: Proliferation assay (spheroid confluence, 8 days), MOLM14; details: read-out: spheroid assay_MOLM14 IC50
Method: as §1
(§2) MOLM14 cells were cultured in RPMI-1640 (Sigma Aldrich) supplemented with 10% heat-inactivated fetal bovine serum (HyClone), 2 mM L-glutamine (Sigma Aldrich) and 50 μg/ml gentamycin (Gibco). KO-52 and OCI-AML3 cell lines were propagated in alpha-MEM (Sigma Aldrich) supplemented with 20% heat-inactivated fetal bovine serum (HyClone), 2 mM L-glutamine (Sigma Aldrich) and 50 μg/ml gentamycin (Gibco).
(§3) In order to assess the anti-proliferative effects, 200 MOLM14 cells, 200 OCI-AML3 cells or 300 KO-52 cells were seeded in 200 μl media per well in 96-well round bottom, ultra-low attachment plates (Costar, catalogue number 7007). Cell seeding numbers were chosen based on growth curves to ensure linear growth throughout the experiment. Test compounds were added at different concentrations and the DMSO content was normalized to 0.3%. Cells were incubated for 8 days at 37° C. and 5% CO2. Spheroid like growth was measured in real-time by live-cell imaging (IncuCyteZOOM, Essenbio, 4×objective) acquiring images at day 8. Confluence (%) as a measure of spheroid size was determined using an integrated analysis tool.
(§4) In order to determine the effect of the test compounds over time, the confluence in each well as a measure of spheroid size, was calculated. Confluence of the highest dose of a reference compound was used as baseline for the LC (Low control) and the confluence of DMSO treated cells was used as 0% cytotoxicity (High Control, HC).
(§5) Absolute IC50 values were calculated as percent change in confluence as follows:
(§6) LC=Low Control: cells treated with e.g. 1 μM of the cytotoxic agent staurosporin, or e.g. cells treated with a high concentration of an alternative reference compound
(§7) HC=High Control: Mean confluence (%) (DMSO treated cells)
(§8) % Effect=100−(100*(Sample−LC)/(HC−LC))
(§9) GraphPad Prism (version 7.00) was used to calculate the IC50. Dose-response equation was used for the plot of % Effect vs Log10 compound concentration with a variable slope and fixing the maximum to 100% and the minimum to 0%.

KO-52 cells = test: Proliferation assay (spheroid confluence, 8 days), KO-52 control cell line; details: read-out: spheroid assay_KO-52 IC50
Method: as §1, §2, §3, §4, §5, §6, §7, §8, §9

Compound	IC50 (MEIS1 mRNA expression) [nM]	IC50 [1] [nM]	IC50 (OCI-AML3 cells) [nM]	IC50 (MOLM14 cells) [nM]	IC50 (KO-52 cells) [nM]
CCN(C(=O)c1cc(F)ccc1-n1cc(CC2CN(C(C(C)C)[C@H]3C[C@@H](N4CCC(S(C)(=O)=O)CC4)C3)C2)c2c(C)cncc21)C(C)C (some centres unmarked)	16	0.03	–	–	600
CC(=O)N1CC(C)C(N2CC(Cc3cn(-c4ccc(F)cc4C(=O)N(C)C(C)C)c4cncc(C)c34)C2)C(C)C1 (centres unmarked)	281	0.151	–	–	–
CC(=O)N1CCC([C@@H](CO)N2CC[C@@H](Cc3cn(-c4ccc(F)cc4C(=O)N(C)C(C)C)c4cncc(C)c34)C2)CC1	524	0.387	–	148	> 15000
Cc1cncc2c1c(CC1CN([C@@H](C(C)C)[C@H]3C[C@@H](N4CCC(S(C)(=O)=O)CC4)C3)C1)cn2-c1ccc(F)cc1C(=O)N(C)C(C)C (single isomer, unassigned)	420	0.072	–	–	–
CC(=O)N1CCC(CN2CC[C@@H](Cc3cn(-c4ccc(F)cc4C(=O)N4C[C@H](O)C[C@H]4C)c4cncc(C)c34)C2)CC1	642	0.267	–	553	–
CCN(C(=O)c1cc(F)ccc1-n1cc(CC2CN(C(C(C)C)[C@H]3C[C@H](N4CCC(S(C)(=O)=O)CC4)C3)C2)c2c(C)cncc21)C(C)C (some centres unmarked)	19	0.052	–	3	500
CC(=O)N1C[C@@H]2CN([C@H]3C[C@@H](C(C)N4CC[C@@H](Cc5cn(-c6ccc(F)cc6C(=O)N(C)C(C)C)c6cncc(C)c56)C4)C3)C[C@H]2C1 (single isomer, unassigned)	162	0.042	–	–	–
Cc1cncc2c1c(C[C@@H]1CCN(CC3CCCOC3)C1)cn2-c1ccc(F)cc1C(=O)N(C)C(C)C (single isomer, unassigned) [Compound 138]	47	0.067	–	–	–
Cc1cncc2c1c(CC1CN(CC3CCOCC3)C1)cn2-c1ccc(F)cc1C(=O)N1C[C@H](O)C[C@H]1C	177	0.311	–	–	–

Second part, led by results:

IC50 (MEIS1 mRNA expression) [nM]	IC50 [1] [nM]	IC50 (OCI-AML3 cells) [nM]	IC50 (MOLM14 cells) [nM]	Compound	IC50 (KO-52 cells) [nM]
299	0.111	–	–	CC(=O)N1CCC(CN2CC[C@@H](Cc3cn(-c4ccc(F)cc4C(=O)N4CCC(O)C4(C)C)c4cncc(C)c34)C2)CC1 (single isomer, unassigned) [Compound 313a]	–
44	0.054	72	32	Cc1cncc2c1c(C[C@@H]1CCN(CC3CCCOC3)C1)cn2-c1ccc(F)cc1C(=O)N(C)C(C)C (single isomer, unassigned) [Compound 138a]	1700
258	0.109	222	86	Cc1cncc2c1c(C[C@@H]1CCN(CC3CCCOC3)C1)cn2-c1ccc(F)cc1C(=O)N(C)C(C)C (single isomer, unassigned) [Compound 138b]	3700
713	0.713	–	–	CC(=O)N1CCC(CN2CC[C@@H](Cc3cn(-c4ccc(F)cc4C(=O)N4CCC(O)C4(C)C)c4cncc(C)c34)C2)CC1 (single isomer, unassigned) [Compound 313b]	–
